Laboratory results reported in ChEMBL document CHEMBL4371086, “An irreversible inhibitor of peptidyl-prolyl cis/trans isomerase Pin1 and evaluation of cytotoxicity” (Bioorg Med Chem Lett, 2019).
Activity calls are given as the source filed them. No cut-off for these calls is given here.

Chains of the proteins cited; added tags and fusions are not shown.
UniProt Q13526, whole entry: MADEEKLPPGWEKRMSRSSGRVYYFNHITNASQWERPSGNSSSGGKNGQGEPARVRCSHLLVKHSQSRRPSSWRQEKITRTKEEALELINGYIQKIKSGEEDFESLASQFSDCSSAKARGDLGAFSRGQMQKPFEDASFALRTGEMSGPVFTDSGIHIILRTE

Assays:
[1] = target: T1, Peptidyl-prolyl cis-trans isomerase NIMA-interacting 1 (Homo sapiens, UniProt Q13526); experiment: Ratio of Kinact to Ki for irreversible inhibition of Pin1 (unknown origin)
[2] = target: T1, Peptidyl-prolyl cis-trans isomerase NIMA-interacting 1; experiment: Binding affinity to Pin1 (unknown origin) assessed as Cys113-compound adduct formation at 88.8 uM after 2 hrs by IAA probe based LC-ESI-MS analysis

| Ratio [1] | Activity [2] | Structure (SMILES) |
| --- | --- | --- |
| 0.017 M⁻¹ s⁻¹ |  | O=C(/C=C/c1ccc2ccccc2c1)N[C@H](CCC(=O)N1CCOCC1)C(=O)O |
| 0.249 M⁻¹ s⁻¹ | Active | O=C(/C=C/c1ccc2ccccc2c1)N[C@@H](CCC(=O)N1CCOCC1)C(=O)O |
